Columns and labels:
[1] = tested on: Hct116 resistant cell line clone #27 (p97 T688A); assay: GI50 fold-change, resistant clone #27 vs parental; format: cell-based, human; settings: Clone #27, Hct116, resistance generated with compound 4, A2062G / T688A; 72 hrs
Method: (§1) Dose titration of test compounds were conducted in Hct116, DLD-1, or LoVo cell lines. In brief, cells were plated in 384-well plates and a selected candidate drug compound was added in a 10-point 2-fold serial dilution.

Sequences of proteins named here, by UniProt entry; tags and fusion partners are left off.
UniProt P55072, whole entry Q473P: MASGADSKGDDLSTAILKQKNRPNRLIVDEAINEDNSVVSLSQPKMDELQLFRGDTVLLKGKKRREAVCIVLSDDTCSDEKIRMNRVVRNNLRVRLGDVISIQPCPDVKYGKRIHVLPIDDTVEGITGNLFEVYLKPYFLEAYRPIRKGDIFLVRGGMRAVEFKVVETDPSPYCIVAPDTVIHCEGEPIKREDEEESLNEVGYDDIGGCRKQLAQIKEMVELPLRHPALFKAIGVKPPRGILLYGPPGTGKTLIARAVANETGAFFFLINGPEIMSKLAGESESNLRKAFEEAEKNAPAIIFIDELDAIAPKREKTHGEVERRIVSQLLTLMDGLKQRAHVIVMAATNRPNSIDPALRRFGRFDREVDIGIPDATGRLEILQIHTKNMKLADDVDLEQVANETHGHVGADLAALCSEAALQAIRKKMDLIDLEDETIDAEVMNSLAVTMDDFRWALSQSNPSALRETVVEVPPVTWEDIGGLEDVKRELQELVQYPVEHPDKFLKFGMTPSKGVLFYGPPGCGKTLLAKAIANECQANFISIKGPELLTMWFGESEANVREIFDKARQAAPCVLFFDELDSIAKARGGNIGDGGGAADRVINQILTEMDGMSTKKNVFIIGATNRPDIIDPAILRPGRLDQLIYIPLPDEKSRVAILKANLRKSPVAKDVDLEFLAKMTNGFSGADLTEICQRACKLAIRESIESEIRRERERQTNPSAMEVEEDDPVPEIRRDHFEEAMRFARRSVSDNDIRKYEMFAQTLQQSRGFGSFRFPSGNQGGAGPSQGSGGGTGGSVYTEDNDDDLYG
UniProt P55072, whole entry D649A: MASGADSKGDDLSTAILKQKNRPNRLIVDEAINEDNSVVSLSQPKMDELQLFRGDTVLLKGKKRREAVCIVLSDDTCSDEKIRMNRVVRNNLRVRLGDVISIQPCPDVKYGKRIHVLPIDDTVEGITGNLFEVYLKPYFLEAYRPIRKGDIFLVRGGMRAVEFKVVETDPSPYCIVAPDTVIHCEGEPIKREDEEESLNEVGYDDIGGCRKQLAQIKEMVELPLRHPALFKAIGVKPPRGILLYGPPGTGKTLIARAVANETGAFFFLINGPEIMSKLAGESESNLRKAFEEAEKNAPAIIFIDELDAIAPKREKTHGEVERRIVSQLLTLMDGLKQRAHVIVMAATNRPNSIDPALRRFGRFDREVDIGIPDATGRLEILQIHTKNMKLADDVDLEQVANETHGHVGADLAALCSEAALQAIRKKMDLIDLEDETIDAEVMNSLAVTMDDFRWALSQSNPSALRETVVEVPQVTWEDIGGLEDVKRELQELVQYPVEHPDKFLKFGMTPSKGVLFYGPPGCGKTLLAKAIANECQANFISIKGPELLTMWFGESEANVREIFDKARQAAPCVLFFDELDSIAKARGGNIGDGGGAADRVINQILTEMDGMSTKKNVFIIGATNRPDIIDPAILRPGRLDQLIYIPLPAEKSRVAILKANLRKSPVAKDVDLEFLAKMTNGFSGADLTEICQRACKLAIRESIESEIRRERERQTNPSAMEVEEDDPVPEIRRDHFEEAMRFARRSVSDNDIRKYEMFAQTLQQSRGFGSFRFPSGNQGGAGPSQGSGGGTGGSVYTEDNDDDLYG
UniProt P55072, whole entry T688A: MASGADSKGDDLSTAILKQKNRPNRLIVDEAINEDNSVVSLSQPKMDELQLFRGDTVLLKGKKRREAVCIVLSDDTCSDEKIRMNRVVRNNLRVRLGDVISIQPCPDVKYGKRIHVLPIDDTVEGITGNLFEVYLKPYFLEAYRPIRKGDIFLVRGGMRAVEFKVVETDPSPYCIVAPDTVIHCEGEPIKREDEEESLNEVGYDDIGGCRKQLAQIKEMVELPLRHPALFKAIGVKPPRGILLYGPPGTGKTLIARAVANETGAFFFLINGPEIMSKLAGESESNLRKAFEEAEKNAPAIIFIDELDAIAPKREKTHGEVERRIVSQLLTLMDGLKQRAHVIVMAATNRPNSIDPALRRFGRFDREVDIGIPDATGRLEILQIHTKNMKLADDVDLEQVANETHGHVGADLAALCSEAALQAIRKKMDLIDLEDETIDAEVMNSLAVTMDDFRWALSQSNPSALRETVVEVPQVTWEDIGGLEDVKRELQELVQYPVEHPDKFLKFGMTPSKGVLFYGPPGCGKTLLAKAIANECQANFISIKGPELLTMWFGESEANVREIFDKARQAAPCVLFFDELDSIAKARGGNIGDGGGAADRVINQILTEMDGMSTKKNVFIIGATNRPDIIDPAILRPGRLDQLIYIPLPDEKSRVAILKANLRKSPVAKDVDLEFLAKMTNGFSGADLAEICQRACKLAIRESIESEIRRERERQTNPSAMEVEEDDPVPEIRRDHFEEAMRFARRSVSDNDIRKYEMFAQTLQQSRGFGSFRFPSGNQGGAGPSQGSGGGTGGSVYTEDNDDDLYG
UniProt P55072, whole entry G481A: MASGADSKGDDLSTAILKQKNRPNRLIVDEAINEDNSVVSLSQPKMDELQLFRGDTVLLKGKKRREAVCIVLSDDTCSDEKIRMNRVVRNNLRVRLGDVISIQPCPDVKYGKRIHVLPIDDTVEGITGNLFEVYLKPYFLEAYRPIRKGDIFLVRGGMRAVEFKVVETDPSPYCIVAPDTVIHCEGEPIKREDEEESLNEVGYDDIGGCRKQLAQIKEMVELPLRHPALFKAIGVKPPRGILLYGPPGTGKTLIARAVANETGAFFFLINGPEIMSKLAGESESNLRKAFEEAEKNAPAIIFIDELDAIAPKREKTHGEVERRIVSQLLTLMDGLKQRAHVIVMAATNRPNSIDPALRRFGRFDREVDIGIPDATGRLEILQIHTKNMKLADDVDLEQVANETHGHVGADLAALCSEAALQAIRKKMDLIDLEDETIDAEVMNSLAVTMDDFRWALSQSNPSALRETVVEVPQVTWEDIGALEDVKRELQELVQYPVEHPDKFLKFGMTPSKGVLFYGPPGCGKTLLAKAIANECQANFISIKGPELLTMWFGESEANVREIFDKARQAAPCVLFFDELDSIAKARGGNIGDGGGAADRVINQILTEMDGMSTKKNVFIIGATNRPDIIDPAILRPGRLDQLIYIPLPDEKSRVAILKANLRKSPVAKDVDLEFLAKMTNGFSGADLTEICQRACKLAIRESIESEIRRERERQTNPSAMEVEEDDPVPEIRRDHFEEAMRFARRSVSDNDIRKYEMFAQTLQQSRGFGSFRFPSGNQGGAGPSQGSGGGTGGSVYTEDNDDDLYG
UniProt P55072, whole entry E470D: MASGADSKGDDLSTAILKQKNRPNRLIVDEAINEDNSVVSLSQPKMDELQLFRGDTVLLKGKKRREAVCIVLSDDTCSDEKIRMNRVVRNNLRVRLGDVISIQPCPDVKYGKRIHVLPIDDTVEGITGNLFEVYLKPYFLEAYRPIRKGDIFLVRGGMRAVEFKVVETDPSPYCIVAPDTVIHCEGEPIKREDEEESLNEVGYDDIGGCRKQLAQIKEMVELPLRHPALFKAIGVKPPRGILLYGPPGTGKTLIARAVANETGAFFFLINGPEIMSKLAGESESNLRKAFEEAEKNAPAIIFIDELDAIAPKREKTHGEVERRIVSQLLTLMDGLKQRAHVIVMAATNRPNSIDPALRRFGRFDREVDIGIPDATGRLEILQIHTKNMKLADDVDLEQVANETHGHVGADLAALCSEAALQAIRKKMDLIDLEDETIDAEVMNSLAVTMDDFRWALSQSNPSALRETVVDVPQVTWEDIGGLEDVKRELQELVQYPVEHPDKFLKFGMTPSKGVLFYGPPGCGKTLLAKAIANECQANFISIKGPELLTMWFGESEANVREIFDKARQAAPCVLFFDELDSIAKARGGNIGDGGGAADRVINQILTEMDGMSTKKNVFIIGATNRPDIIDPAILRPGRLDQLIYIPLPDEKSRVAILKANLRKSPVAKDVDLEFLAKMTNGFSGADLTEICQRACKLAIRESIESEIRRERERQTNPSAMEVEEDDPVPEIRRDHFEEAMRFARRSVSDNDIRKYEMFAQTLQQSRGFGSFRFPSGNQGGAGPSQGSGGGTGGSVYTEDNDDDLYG
UniProt P55072, whole entry A659T: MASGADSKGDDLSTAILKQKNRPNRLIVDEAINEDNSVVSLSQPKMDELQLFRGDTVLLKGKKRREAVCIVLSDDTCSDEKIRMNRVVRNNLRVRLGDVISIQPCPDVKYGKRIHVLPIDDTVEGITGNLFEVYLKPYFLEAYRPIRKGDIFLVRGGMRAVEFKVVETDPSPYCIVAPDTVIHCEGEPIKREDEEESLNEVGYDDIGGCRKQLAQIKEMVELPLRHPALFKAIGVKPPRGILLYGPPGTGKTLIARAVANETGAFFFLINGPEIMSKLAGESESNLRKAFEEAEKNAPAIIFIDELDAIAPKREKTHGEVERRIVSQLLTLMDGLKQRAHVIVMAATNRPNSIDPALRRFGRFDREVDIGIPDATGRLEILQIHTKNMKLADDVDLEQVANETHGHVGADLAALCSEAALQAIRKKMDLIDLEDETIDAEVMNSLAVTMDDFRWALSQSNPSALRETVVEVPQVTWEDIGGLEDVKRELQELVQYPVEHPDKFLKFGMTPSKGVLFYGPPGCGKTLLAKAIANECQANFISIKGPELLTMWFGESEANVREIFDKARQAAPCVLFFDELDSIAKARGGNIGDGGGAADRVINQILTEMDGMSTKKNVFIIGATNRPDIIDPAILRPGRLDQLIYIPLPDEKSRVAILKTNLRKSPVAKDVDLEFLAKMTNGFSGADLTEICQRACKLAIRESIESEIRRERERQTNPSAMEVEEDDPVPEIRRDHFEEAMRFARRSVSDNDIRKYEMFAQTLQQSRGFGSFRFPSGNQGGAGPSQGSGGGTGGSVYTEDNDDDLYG

[2] = tested on: Hct116 resistant cell line clone #31 (p97 C535Y); assay: GI50 fold-change, resistant clone #31 vs parental; format: cell-based, human; settings: Clone #31, Hct116, resistance generated with compound 4, G1604A / C535Y; 72 hrs
Method: (§2) Dose titration of test compounds were conducted in Hct116, DLD-1, or LoVo cell lines. In brief, cells were plated in 384-well plates and a selected candidate drug compound was added in a 10-point 2-fold serial dilution. […] Data was fit to a four-parameter sigmoidal curve to determine compound doses that result in 50% decrease in viability (GI50). Hct116 cells were plated at 50,000 cells per 15 cm dish and treated with GI50-GI90 doses of test compound for 2-4 weeks until individual colonies of cells were visible on the plate.

[3] = tested on: Hct116 resistant cell line clone #8 (p97 N660D); assay: GI50 fold-change, resistant clone #8 vs parental; format: cell-based, human; settings: Clone #8, Hct116, resistance generated with compound 3, A1978G / N660D; 72 hrs
Method: as §2

[4] = tested on: Hct116 resistant cell line clone #47 (p97 E498D); assay: GI50 fold-change, resistant clone #47 vs parental; format: cell-based, human; settings: Clone #47, Hct116, resistance generated with compound 4, G1494T / E498D; 72 hrs
Method: as §2

[5] = tested on: Hct116 resistant cell line clone #6 (p97 A528T); assay: GI50 fold-change, resistant clone #6 vs parental; format: cell-based, human; settings: Clone #6, Hct116, resistance generated with compound 2, G1582 / A528T; 72 hrs
Method: as §2

[6] = tested on: Hct116 resistant cell line clone #180 (p97 A569T); assay: GI50 fold-change, resistant clone #180 vs parental; format: cell-based, human; settings: Clone #180, Hct116, resistance generated with compound 4, G1705A / A569T; 72 hrs
Method: as §2

[7] = tested on: Hct116 resistant cell line clone #139 (p97 P472S); assay: GI50 fold-change, resistant clone #139 vs parental; format: cell-based, human; settings: Clone #139, Hct116, resistance generated with compound 4, C1414T / P472S; 72 hrs
Method: as §2

[8] = tested on: Hct116 resistant cell line clone #33 (p97 P472L); assay: GI50 fold-change, resistant clone #33 vs parental; format: cell-based, human; settings: Clone #33, Hct116, resistance generated with compound 4, C1415T / P472L; 72 hrs
Method: as §1

[9] = tested on: Hct116 resistant cell line clone #29 (p97 N660K); assay: GI50 fold-change, resistant clone #29 vs parental; format: cell-based, human; settings: Clone #29, Hct116, resistance generated with compound 4, C1980A / N660K; 72 hrs
Method: as §1

[10] = tested on: Hct116 resistant cell line clone #90 (p97 Q473P); assay: GI50 fold-change, resistant clone #90 vs parental; format: cell-based, human; settings: Clone #90, Hct116, resistance generated with compound 4, A1418C / Q473P; 72 hrs
Method: as §1

[11] = tested on: Hct116 resistant cell line clone #117 (p97 L482I); assay: GI50 fold-change, resistant clone #117 vs parental; format: cell-based, human; settings: Clone #117, Hct116, resistance generated with compound 4, C1444A / L482I; 72 hrs
Method: as §2

[12] = tested on: Hct116 resistant cell line clone #5 (p97 D649A); settings: Clone #5, Hct116, resistance generated with compound 2, A1946C / D649A; 72 hrs
[13] = tested on: Hct116 resistant cell line clone #30 (p97 F516L); assay: GI50 fold-change, resistant clone #30 vs parental; format: cell-based, human; settings: Clone #30, Hct116, resistance generated with compound 4, T1546C / F516L; 72 hrs
Method: as §2

[14] = tested on: Hct116 resistant cell line clone #34 (p97 E470D/E); assay: GI50 fold-change, resistant clone #34 vs parental; format: cell-based, human; settings: Clone #34, Hct116, resistance generated with compound 4, G1410T/G / E470D/E; 72 hrs
Method: as §1

[15] = tested on: Hct116 resistant cell line clone #45 (p97 F539I); assay: GI50 fold-change, resistant clone #45 vs parental; format: cell-based, human; settings: Clone #45, Hct116, resistance generated with compound 4, T1615A / F539I; 72 hrs
Method: as §2

[16] = tested on: Hct116 resistant cell line clone #2 (p97 V474A); assay: GI50 fold-change, resistant clone #2 vs parental; format: cell-based, human; settings: Clone #2, Hct116, resistance generated with compound 2, T1421C / V474A; 72 hrs
Method: as §2

[17] = tested on: Hct116 resistant cell line clone #25 (p97 P500T); assay: GI50 fold-change, resistant clone #25 vs parental; format: cell-based, human; settings: Clone #25, Hct116, resistance generated with compound 4, C1498A / P500T; 72 hrs
Method: as §2

[18] = tested on: Hct116 resistant cell line clone #22 (p97 N660D); assay: GI50 fold-change, resistant clone #22 vs parental; format: cell-based, human; settings: Clone #22, Hct116, resistance generated with compound 4, A1978G / N660D; 72 hrs
Method: as §2

[19] = tested on: DLD-1 resistant cell line clone #82 (p97 A569A/T); assay: GI50 fold-change, resistant clone #82 vs parental; format: cell-based, human; settings: Clone #82, DLD-1, resistance generated with compound 4, G1705G/A / A569A/T; 72 hrs
Method: as §1

[20] = tested on: Hct116 resistant cell line clone #42 (p97 P472A); assay: GI50 fold-change, resistant clone #42 vs parental; format: cell-based, human; settings: Clone #42, Hct116, resistance generated with compound 4, C1414G / P472A; 72 hrs
Method: as §2

[21] = tested on: Hct116 resistant cell line clone #137 (p97 T475I); assay: GI50 fold-change, resistant clone #137 vs parental; format: cell-based, human; settings: Clone #137, Hct116, resistance generated with compound 4, C1424T / T475I; 72 hrs
Method: as §2

[22] = tested on: Hct116 resistant cell line clone #11 (p97 E470D); settings: Clone #11, Hct116, resistance generated with compound 3, G1410T / E470D; 72 hrs
[23] = tested on: Hct116 resistant cell line clone #207 (p97 V485D); assay: GI50 fold-change, resistant clone #207 vs parental; format: cell-based, human; settings: Clone #207, Hct116, resistance generated with compound 4, T1454A / V485D; 72 hrs
Method: as §2

[24] = molecular target: T1, p97 Q473P (Homo sapiens, UniProt P55072, Q473P); assay: Biochemical ATPase assay, mutant p97 vs WT; settings: recombinant p97 with Q473P mutation
T1 construct: His-tag; made in house; host or cells: E. coli B121[DE3]; (so in the source)
Method: (§3) Proteins were expressed in the B121[DE3] strain of E. coli and purified using His-tag mediated nickel purification and gel filtration chromatography.
(§4) ATPase activity of p97 was measured using an ATP regenerating enzymatic system that couples the conversion of phosphoenolpyruvate (PEP) to pyruvate by pyruvate kinase with ADP conversion to ATP. Pyruvate is then converted to lactate by lactate dehydrogenase, which is coupled to the conversion of NADH to NAD^+. The loss of NADH is measured by a decrease in optical absorbance as […] allowing for real-time measurement of ATPase activity. Dose titrations of a test compound were added to the p97 ATPase assay and ATPase activity was monitored. The rate of ATPase activity was fit to four-parameter sigmoidal curve to calculate IC50 of test compound. IC50 values of test compounds for wild type p97 were compared to IC50 values of mutant proteins to identify fold-changes in the potency of test compounds for mutant p97.

[25] = molecular target: T2, p97 D649A (Homo sapiens, UniProt P55072, D649A); assay: Biochemical ATPase assay, mutant p97 vs WT; settings: recombinant p97 with D649A mutation
T2 construct: His-tag; made in house; host or cells: E. coli B121[DE3]; (so in the source)
Method: as §3, §4

[26] = molecular target: T3, p97 T688A (Homo sapiens, UniProt P55072, T688A); assay: Biochemical ATPase assay, mutant p97 vs WT; settings: recombinant p97 with T688A mutation
T3 construct: His-tag; made in house; host or cells: E. coli B121[DE3]; (so in the source)
Method: as §3, §4

[27] = molecular target: T4, p97 G481A (Homo sapiens, UniProt P55072, G481A); assay: Biochemical ATPase assay, mutant p97 vs WT; settings: recombinant p97 with G481A mutation
T4 construct: His-tag; made in house; host or cells: E. coli B121[DE3]; (so in the source)
Method: as §3, §4

[28] = molecular target: T5, p97 E470D (Homo sapiens, UniProt P55072, E470D); assay: Biochemical ATPase assay, mutant p97 vs WT; settings: recombinant p97 with E470D mutation
T5 construct: His-tag; made in house; host or cells: E. coli B121[DE3]; (so in the source)
Method: as §3, §4

[29] = molecular target: T6, p97 A659T (Homo sapiens, UniProt P55072, A659T); assay: Biochemical ATPase assay, mutant p97 vs WT; settings: recombinant p97 with A659T mutation
T6 construct: His-tag; made in house; host or cells: E. coli B121[DE3]; (so in the source)
Method: as §3, §4

[30] = tested on: Hct116 resistant cell line clone #7 (p97 A659T); settings: Clone #7, Hct116, resistance generated with compound 3, G1975A / A659T; 72 hrs
[31] = tested on: Hct116 resistant cell line clone #3 (p97 G481A); settings: Clone #3, Hct116, resistance generated with compound 2, G1442C / G481A; 72 hrs
[32] = tested on: Hct116 resistant cell line clone #1 (p97 D649N); assay: GI50 fold-change, resistant clone #1 vs parental; format: cell-based, human; settings: Clone #1, Hct116, resistance generated with compound 2, G1945A / D649N; 72 hrs
Method: as §2

| Structure (SMILES) | Fold Change in GI50 Compared to Parental Cell Line [1] [fold] | Fold Change in GI50 Compared to Parental Cell Line [2] [fold] | Fold Change in GI50 Compared to Parental Cell Line [3] [fold] | Fold Change in GI50 Compared to Parental Cell Line [4] [fold] | Fold Change in GI50 Compared to Parental Cell Line [6] [fold] | Fold Change in GI50 Compared to Parental Cell Line [8] [fold] | Fold Change in GI50 Compared to Parental Cell Line [9] [fold] | Fold Change in GI50 Compared to Parental Cell Line [10] [fold] | Fold Change in GI50 Compared to Parental Cell Line [12] [fold] | Fold Change in GI50 Compared to Parental Cell Line [14] [fold] | Fold Change in GI50 Compared to Parental Cell Line [16] [fold] | Fold Change in GI50 Compared to Parental Cell Line [18] [fold] | Fold Change in GI50 Compared to Parental Cell Line [21] [fold] | Fold Change in GI50 Compared to Parental Cell Line [22] [fold] | Fold Change in GI50 Compared to Parental Cell Line [23] [fold] | Fold Change in IC50 compared to WT Protein [24] [fold] | Fold Change in IC50 compared to WT Protein [25] [fold] | Fold Change in IC50 compared to WT Protein [27] [fold] | Fold Change in IC50 compared to WT Protein [28] [fold] | Fold Change in IC50 compared to WT Protein [29] [fold] | further results |
| --- | --- | --- | --- | --- | --- | --- | --- | --- | --- | --- | --- | --- | --- | --- | --- | --- | --- | --- | --- | --- | --- |
| COc1nc2ccccc2n1-c1nc2c(c(NCc3ccccc3)n1)CCCC2 [Compound 2, N-benzyl-2-(2-methoxy-1H-1,3-benzodiazol-1-yl)-5,6,7,8-tetrahydroquinazolin-4-amine] | 1.6 | 3.0 | 1.8 | 1.8 | 2.7 | 5.8 | 3.4 | 1.9 | 7.3 | 3.0 | 5.5 | 3.1 | 1.6 | 4.0 | 7.0 | 1.6 | 2.8 | 1.9 | 3.1 | 2.8 | Fold Change in GI50 Compared to Parental Cell Line [5]: 5.0 fold; Fold Change in GI50 Compared to Parental Cell Line [7]: 2.8 fold; Fold Change in GI50 Compared to Parental Cell Line [11]: 2.6 fold; Fold Change in GI50 Compared to Parental Cell Line [13]: 5.4 fold; Fold Change in GI50 Compared to Parental Cell Line [15]: 3.1 fold; Fold Change in GI50 Compared to Parental Cell Line [17]: 1.9 fold; Fold Change in GI50 Compared to Parental Cell Line [19]: 2.8 fold; Fold Change in GI50 Compared to Parental Cell Line [20]: 3.6 fold; Fold Change in IC50 compared to WT Protein [26]: 8.8 fold; Fold Change in GI50 Compared to Parental Cell Line [30]: 3.5 fold; Fold Change in GI50 Compared to Parental Cell Line [31]: 5.4 fold |
| Cc1cc2c(C(N)=O)cccc2n1-c1nc2c(c(NCc3ccccc3)n1)CNCC2 [Compound 3, 1-[4-(benzylamino)-5H,6H,7H,8H-pyrido[4,3-d]pyrimidin-2-yl]-2-methyl-1H-indole-4-carboxamide] | 50.3 | 6.4 | 2.5 | 2.6 | 5.1 | 11.6 | 19.3 | 2.5 | 21.3 | 3.8 | 11.9 | 6.8 | 2.6 | 5.0 | 27.9 | 2.5 | 7.0 | 8.2 | 6.4 | 18.2 | Fold Change in GI50 Compared to Parental Cell Line [32]: 22.6 fold; Fold Change in GI50 Compared to Parental Cell Line [30]: 6.3 fold; Fold Change in GI50 Compared to Parental Cell Line [31]: 27.6 fold |

Source: patent US20170159101A1, “DRUG-RESISTANT P97 ATPASE MUTATIONS” (Cleave Biosciences, Inc., priority 2014, published 2017)
